Values quoted from earlier work in US6149948A, “Method of decreasing plasma cholesterol and triglycerides with a chromium-containing complex” (University of Alabama, priority 1999, dated 2000).

Tested on: peripheral lymphocytes
Settings: sub-cytotoxic concentrations; cited from earlier work

Substance: chromium acetate hydroxide
- DNA strand breaks: fail to produce DNA strand breaks
